The numbers were not newly measured in publication PMC10287555, “Camonsertib in DNA damage response-deficient advanced solid tumors: phase 1 trial results” (Nature Medicine, 2023), which cites them from elsewhere.

The series concerns advanced solid tumors. The conditions noted are these: human, in vivo; cited from earlier work.

“And” between values parts separate entries of the source, which are not always exact repeats. Equal values may be shown once.

For `C[C@@H]1COCCN1c1cc(-c2ccnn2C)c2ccnc(-c3ccn[nH]3)c2n1` [BAY1895344], the “Patients with a response” value is 4/11 and 5/138.
